Ab-14 light chain CDR variants: yeast mating affinities

Data: MIT Lincoln Laboratory AlphaSeq set, Li et al. 2023, doi:10.1038/s41467-023-39022-2, as distributed in FLAb.

Target peptide (SARS-CoV-2 spike, HR2 region): PDVDLGDISGINAS

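Phage display of a naive human antibody library on the peptide gave the parent. Designed CDR sequences, proposed from the first random library and measured here. Several design methods are mixed in this list. In AlphaSeq, yeast of one mating type display the scFv and yeast of the other type display the target. Mating (16 h, 30 °C) was followed by selection of diploids and sequencing of their barcodes. Each replicate has its own calibration line, from reference interactions of the BCL2 family. Each pool was mated in six replicate cultures.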

Parent: Ab-14, a human scFv built as VH, three GGGGS repeats, VL. Only the CDRs of the light chain vary.
VH: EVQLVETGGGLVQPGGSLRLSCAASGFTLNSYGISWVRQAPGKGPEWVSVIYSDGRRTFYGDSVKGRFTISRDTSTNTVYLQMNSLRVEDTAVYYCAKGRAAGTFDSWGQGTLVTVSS
VL: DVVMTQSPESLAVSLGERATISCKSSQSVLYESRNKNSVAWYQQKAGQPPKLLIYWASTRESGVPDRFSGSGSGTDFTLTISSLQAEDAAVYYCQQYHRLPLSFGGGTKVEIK

The parent's light chain CDRs are KSSQSVLYESRNKNSVA, WASTRES, QQYHRLPLS; each variant's own CDRs replace them letter for letter.
Kd is apparent (estimated from mating counts) and averaged on the log scale over replicates with a signal. Smaller is tighter.
"not detected" marks a missing value. The strain was present, yet no cells mated with the target were sequenced in any replicate, which points to weak or no binding.
Values of this round are not directly comparable with the first-round values of the same sequences.
Of ten entries with the parent sequence, four were seen in most replicates (averages 2.2 nM to 240 nM), three in one and three in none, so single entries are noisy.
In the paper, a design with two or fewer of six values counts as a poor binder.
Nonspecific signal, from three strains lacking the peptide, appeared in 4% of pairings of all light chain designs, centred on 430 nM (5% of these signals below 38 nM); values are not corrected for it.

CDR-L1,CDR-L2,CDR-L3,Kd (apparent),seen in
KAPQSWLYESRNKNSVA,GASTRES,QQYHRLPLI,820 pM,6/6
KSSQSDLYESDNKNSVA,AASTRES,QQYLRLPLS,4.2 nM,6/6
KFSQSVLYESRMSNSVA,NASTRES,QQYHRLPLS,460 pM,6/6
KSEQSVLGESRNKNNVA,WASERES,QQYSRLPLS,740 pM,6/6
KLSQSNLYESRNKNSVA,NASTRLM,QQYHRLPLS,730 pM,6/6
HLQDWGIYHMENMDSIA,EREKLEM,QQYFRLPLS,2.4 nM,6/6
QLNHYKHETMAKWQNIA,DMTIRED,QQYAHLPLA,4.9 nM,6/6
TLTQSVGMESHNKNSVA,DLDTRGS,QQYHRLPLS,870 pM,6/6
KSLQSQEYESRNKNSVA,EASTRED,QQYHRLPLS,1.1 nM,6/6
KISINQSNYGGMRSAIA,NTNLARM,QQYYHLPLM,8.4 nM,6/6
KSSQSVTYESRNKNSVA,DASLRES,QQYHRLPLS,not detected,0/6
KLYMSTMLESHNKNSIA,DLSTRGN,QQYHRLPLS,1.4 nM,6/6
KSSQSGLYESRNKNSVA,WASTRES,QQYFRLPIS,55 nM,5/6
KVSQSDNGESRNHNSVA,HASTRSS,QQYHRLPLS,3.3 nM,6/6
NVSIEHYEGTRYWEAVA,DHSQRNN,QQYDQLPLS,13 nM,6/6
KLSQSVLYESRNSNNVA,GASTRES,QQYHRLPLS,1.0 nM,6/6
MVNGLTDHLSKNTNSVA,ETETREE,QQYERLPLS,1.9 nM,6/6
MLTISGDETHEKAFSIA,NVTNKEY,QQYARLPLT,11 nM,6/6
KLTQVSGHLSAIKNNVA,EMVTREN,QQYNRLPLS,2.4 nM,6/6
KFSQKVLYEHRCKNSVA,NASTRES,QQYHRLPLS,17 nM,6/6
KISMLINMTFEQSNNVA,EMATREQ,QQYNRLPLS,53 nM,5/6
KSSQSVLYDSYNKNSVA,WASEREI,QQYHRLPLS,12 nM,6/6
KLEFSWLYESRNKNSVA,NASQRES,QQYHRLPLS,720 pM,6/6
KSSQSVWYESREKNSVA,WASTRES,QQPHRHPLS,not detected,0/6
KSSGSVEMLSRNVNNVA,EASTREL,QQYHRLPLS,1.8 nM,6/6
KSSQEVLYESRSKNSVA,AASTRES,QQYWRLPLS,2.2 nM,6/6
KSSQSVLEESKNKNSVA,WASTRES,QQYHRLPLS,4.8 nM,6/6
KSSQSVLYESRNLQSVA,NASTRES,QQYHRLPLS,3.7 nM,6/6
NISESMYFQSRNTNNIA,EMSTRER,QHYHRLPLS,3.6 nM,6/6
KFSQSFLYESRNKNSVA,NASTRES,QQYHRLPLS,1.1 nM,6/6
KISMSINLTFQASNNVA,EMATREQ,QQYNRLPLS,7.0 nM,6/6
KSGQGGLYESRNKNSVA,GASQRES,QQYHRLPLS,1.2 nM,6/6
KSYISALYESRNKNSVA,QASTRES,QQYHRLPLT,14 nM,6/6
KSSISYLYNSDNKNSVA,EASTRES,QQYHRLPLS,1.9 nM,6/6
TISQMTSLFSQSINNVA,EVSMRES,QQYDRLPLS,24 nM,6/6
KFSQSTLYESRNKNSVA,WASTRES,QVYHRMPLS,not detected,0/6
KLSQSVLYESRNKWSVA,NASTRED,QQYHRLPLS,360 pM,6/6
WSSQSVLYESRNKNSCA,WASTRES,QQYHREPLS,not detected,0/6
KLSMSELYESRMCNSVA,EASQREE,QQYHRLPLS,3.5 nM,6/6
KISQTFNVGTKNTNSLA,EMNTRGG,QDYHRLPLS,4.1 nM,6/6
KFSQSVLYESRNKNSVA,NASTREK,QQYHRLPLS,590 pM,6/6
MISQLMNMGTFAINSVA,QAEIRNM,QQYDRLPLA,not detected,0/6
NMEGVEFEMAQHGNSVA,GVDLREA,QQYFRLPLH,5.2 nM,6/6
KISQLVNFEGKNLNSVA,QMSTRES,QQYDRLPLS,1.9 nM,6/6
KISMLQRFQQNAKNNIA,EMNRREE,QQYHRLPLS,1.1 nM,6/6
KLIQSVAMSSRQKDSIA,DNSTRES,QQYHRLPLS,9.8 nM,6/6
TISESAQQESHNKNSVA,DLSVRGS,QQYHRLPLS,1.1 nM,6/6
KSQQSQLYESRNKNNVA,HASTRED,QQYHRLPLS,990 pM,6/6
NIYQAMHTLSQMKDNVA,DVNERGD,QQYFRLPLS,1.1 nM,6/6
MLSQMTGLGMKASNSVA,QASMRFD,QQYYRLPLI,10 nM,6/6
KSSQSGLYTSHNKNSVA,WASKRES,QQYHRLPLS,560 nM,4/6
KLSQSGLYEMRNKNSVA,QASQRLQ,QQYHRLPLS,3.9 nM,6/6
KLSQSVAYESRTKNSVA,NASTRES,QQYHRLPLS,810 pM,6/6
KLLDWEYGTTAMNSSIA,DAALESD,QQYDRLPLT,11 nM,6/6
IIEQGEYEQEQHKNAIA,DGEERMR,QQYYKLPLV,1.9 nM,6/6
KCPQGVLYESRNKNSVA,GASVRES,QQYHRLPLS,98 nM,5/6

Extract of 7 entries:

CDR-L1,CDR-L2,CDR-L3,Kd (apparent),seen in
KCPQGVLYESRNKNSVA,GASVRES,QQYHRLPLS,98 nM,5/6
KSSQSDLYESDNKNSVA,AASTRES,QQYLRLPLS,4.2 nM,6/6
KISMSINLTFQASNNVA,EMATREQ,QQYNRLPLS,7.0 nM,6/6
KISMLQRFQQNAKNNIA,EMNRREE,QQYHRLPLS,1.1 nM,6/6
KLEFSWLYESRNKNSVA,NASQRES,QQYHRLPLS,720 pM,6/6
MLTISGDETHEKAFSIA,NVTNKEY,QQYARLPLT,11 nM,6/6
KFSQSVLYESRMSNSVA,NASTRES,QQYHRLPLS,460 pM,6/6